Test results as given in patent publication US6271266A, “Use of idebenone and analogues against β amyloid induced cytotoxicity” (Takeda Chemical Industries, Ltd., priority 1996, dated 2001).

Assay: in vivo
Conditions: rat, acute toxicity LD50, rats

**Q.** For `COC1=C(OC)C(=O)C(CCCCCCCCCCO)=C(C)C1=O` [idebenone, 6-(10-hydroxydecyl)-2,3-dimethoxy-5-methyl-1,4-benzoquinone], which LD50 (females) is on record?
**A.** ~10000 mg/kg

**Q.** What about the LD50 (males) of the same compound?
**A.** ≥ 10000 mg/kg
